Molecular target: Dipeptidyl peptidase 4 (Mus musculus, UniProt P28843)
Experiment: Inhibition of DPP4 in C57BL/6 mouse serum pre-incubated for 5 mins followed by Gly-Pro-7-AMC substrate addition by fluorescence based assay
Format: cell-free

By UniProt entry, the sequences of proteins in these tests, tags left out. Where a name states a change or a piece, a line headed by the entry shows the natural chain unless it says otherwise.
UniProt P28843: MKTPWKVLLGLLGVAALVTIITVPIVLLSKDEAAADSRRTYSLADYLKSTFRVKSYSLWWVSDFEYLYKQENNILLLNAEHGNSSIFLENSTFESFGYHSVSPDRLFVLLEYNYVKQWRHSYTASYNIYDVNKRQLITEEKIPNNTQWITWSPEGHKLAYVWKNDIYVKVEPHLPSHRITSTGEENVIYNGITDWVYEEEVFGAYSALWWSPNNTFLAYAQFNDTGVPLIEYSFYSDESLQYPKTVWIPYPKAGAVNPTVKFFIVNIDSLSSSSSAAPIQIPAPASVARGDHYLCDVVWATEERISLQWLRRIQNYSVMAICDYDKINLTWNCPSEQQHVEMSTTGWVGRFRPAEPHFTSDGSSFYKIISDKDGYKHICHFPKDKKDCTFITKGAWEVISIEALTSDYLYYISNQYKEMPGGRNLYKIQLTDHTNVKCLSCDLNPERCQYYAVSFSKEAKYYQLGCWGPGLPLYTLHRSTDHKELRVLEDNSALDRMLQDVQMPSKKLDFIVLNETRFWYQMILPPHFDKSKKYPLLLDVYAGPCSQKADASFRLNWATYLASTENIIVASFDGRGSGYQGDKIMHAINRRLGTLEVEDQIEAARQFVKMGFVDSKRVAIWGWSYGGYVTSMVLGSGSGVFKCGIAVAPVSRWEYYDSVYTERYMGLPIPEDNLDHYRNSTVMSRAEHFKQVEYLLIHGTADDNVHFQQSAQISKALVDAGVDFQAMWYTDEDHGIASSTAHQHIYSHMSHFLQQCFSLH

N[C@@H](CC(=O)N1CCn2c(nnc2C(F)(F)F)C1)Cc1cc(F)c(F)cc1F [SITAGLIPTIN]
IC50: 14.7 nM

From ChEMBL document CHEMBL4334524, “Discovery of Highly Polar β-Homophenylalanine Derivatives as Nonsystemic Intestine-Targeted Dipeptidyl Peptidase IV Inhibitors” (J Med Chem, 2019)
